System: Enterobacter cloacae
Settings: EcDC64

GENTAMICIN
MIC: 0.5 µg/mL

From ChEMBL document CHEMBL1154428, “Cloning, nucleotide sequencing, and analysis of the AcrAB-TolC efflux pump of Enterobacter cloacae and determination of its involvement in antibiotic resistance in a clinical isolate” (2007)
